Reference: patent US20040106198A1, “Inhibition of peptide cleavage in plants” (LARGE SCALE BIOLOGY CORPORATION, priority 2002, published 2004)

Molecular target: Nicotianalisin (Nicotiana benthamiana subtilisin-like serine protease) (Nicotiana benthamiana)
Assay: cell-based or functional assay

% Inhibition of protease activity in IF (hydrolysis of 0.3 mM N-Suc-AAPL-p-NA after 30 min with inhibitor at 24 C): 46%
Substance: Aprotinin (from UniProt P00974 36-93)
